Molecular target: Coagulation factor X (Homo sapiens, UniProt P00742)
Assay: Inhibitory concentration to coagulation factor X

By UniProt entry, the sequences of proteins in these tests, tags left out. Residues count along the entry.
UniProt P00742, 41-179 limits assumed: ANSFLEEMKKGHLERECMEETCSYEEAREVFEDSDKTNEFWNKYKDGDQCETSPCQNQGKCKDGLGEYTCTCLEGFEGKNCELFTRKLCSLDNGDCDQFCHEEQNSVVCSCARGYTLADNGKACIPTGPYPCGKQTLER
UniProt P00742, 235-488 limits assumed: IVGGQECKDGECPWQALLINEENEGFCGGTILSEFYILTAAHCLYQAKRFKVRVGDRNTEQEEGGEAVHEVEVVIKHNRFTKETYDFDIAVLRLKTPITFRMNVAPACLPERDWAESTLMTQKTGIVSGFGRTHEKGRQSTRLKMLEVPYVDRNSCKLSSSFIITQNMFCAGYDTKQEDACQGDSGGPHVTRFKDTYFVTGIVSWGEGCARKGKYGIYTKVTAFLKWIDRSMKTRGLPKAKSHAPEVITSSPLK

## C/C(=C(\F)C(=O)Nc1ccc(-c2ccccc2S(N)(=O)=O)cc1)c1cccc(C(=N)NC2CC2)c1
  IC50: 1.61 µM
